# This is a sample that favours compounds with a hit; in the whole collection about 1.7% have one here.
# Dyrk1A ADPGlo = inhibitors of rat Dyrk1A kinase; ADP-Glo luminescence, NFATc1 peptide; inhibition, % at 12.5 µM; Q63470; 310,000 compounds, 0.43% hits; AID 504441; in the data active means inhibition above about 50%;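 further: plate controls were vehicle with enzyme for no effect and no enzyme for full effect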
# Yeast UUG start = alters start codon recognition fidelity in yeast. S. cerevisiae UUG-firefly luciferase reporter, luminescence/redox ratio. 350,000 tested, 0.13% active. activity score, % at 18.7 µM. AID 602363;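 active means replicate mean at a twofold rise or more, about +100% in these data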;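 further: firefly luciferase made from a UUG start codon reports start codon fidelity; reporter light over untreated wells divided by growth signal over untreated wells; some hits fall short of that in this replicate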
# CAL PDZ FP-1 = inhibitors of human CAL PDZ peptide binding; inhibition, % at 20 µM; AID 504414; purified CAL PDZ, TMR-peptide fluorescence polarization, 1 h; 330,000 compounds, 0.02% hits;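 active means highest replicate inhibition of at least 40%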;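 further: plate controls were DMSO neutral control wells for no effect and unlabeled competitor peptide control wells for full effect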
#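 System: tagged CAL PDZ domain. Schedule: 1 h room-temperature incubation prior to read. Signal: fluorescence polarization (mP). Measure: percent inhibition from loss of millipolarization.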
# dFosB activator = enhances mouse delta FosB homodimer DNA binding. 340,000 compounds, 0.99% hits. purified delta FosB, TAMRA-CDK5 oligo fluorescence polarization; percent of positive-control signal above neutral wells. activation, % at 25 µM. P13346;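 active means mean activation above about 17%, with every replicate also reaching it, limit read from the data, passing the limit was not always enough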
# CAL PDZ FP-2 = inhibitors of human CAL PDZ peptide binding; AID 602252; Q9HD26; inhibition, % at 24.9 µM; 300,000 compounds, 0.92% hits; purified CAL PDZ, TMR-peptide fluorescence polarization, 1 h;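 active means mean inhibition of at least 30% with at least half of replicates also reaching 30%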;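 further: 0% = DMSO neutral control and 100% = excess unlabeled competitor peptide PRC23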
# CDK5 p35 inh = blocks human CDK5/p35 kinase activity; Q00535+Q15078; Recombinant CDK5/p35, ADP-Glo luminescence, 60 min; inhibition, % at 10 µM; 330,000 compounds, 0.01% hits; AID 488839;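 active means highest replicate inhibition of at least 50% and at least 75% of replicates reaching 50%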;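 further: plate controls were DMSO neutral control for no effect and GW8510 at 10 µM for full effect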
# * = called active by the depositor; nt = not tested or not shown.
Dyrk1A ADPGlo	Yeast UUG start	CAL PDZ FP-1	dFosB activator	CAL PDZ FP-2	CDK5 p35 inh	SMILES
6.9	-15.1	-1.0	-3.1	-0.3	-1.7	COC(=O)c1ccc(C2=NOC(C)(c3sc(-c4ccc(Cl)cc4)nc3C)C2)cc1 (configuration not stated)
-4.9	-10.4	0.3	1.3	44.9*	0.0	COC(=O)c1ccc(C2=NOC(C)(c3sc(-c4ccccc4)nc3C)C2)cc1 (configuration not stated)
nt	3.6	nt	nt	nt	nt	CC(C)NC(=O)N(C)C[C@H]1OCCCC[C@@H](C)Oc2ccc(NS(=O)(=O)c3cn(C)cn3)cc2C(=O)N([C@H](C)CO)C[C@H]1C
nt	2.6	nt	nt	nt	nt	COc1ccc(NC(=O)N(C)C[C@@H]2Oc3ccc(NC(=O)Nc4ccccc4)cc3C(=O)N([C@H](C)CO)C[C@@H]2C)cc1
1.9	-10.3	0.8	81.9*	-2.4	1.5	CN(C)c1ccc(C(=O)OCC(=O)Nc2ccc(S(N)(=O)=O)cc2)cc1
5.9	-7.8	27.7	-5.8	31.9*	-1.3	CN(C)c1ccc(C(=O)OCC(=O)NC2CCCCCC2)cc1
-4.4	-4.3	-3.2	-15.9	0.1	0.9	CC1CCCCC1NC(=O)COC(=O)c1ccc(N(C)C)cc1 (configuration not stated)
-2.0	nt	-0.6	-1.3	-4.3	0.0	CN(C)c1ccc(NC(=O)COC(=O)c2ccc3c(c2)OCO3)cc1

# Retrieved by compound from the list above:
Dyrk1A ADPGlo	Yeast UUG start	CAL PDZ FP-1	dFosB activator	CAL PDZ FP-2	CDK5 p35 inh	SMILES
1.9	-10.3	0.8	81.9*	-2.4	1.5	CN(C)c1ccc(C(=O)OCC(=O)Nc2ccc(S(N)(=O)=O)cc2)cc1
nt	2.6	nt	nt	nt	nt	COc1ccc(NC(=O)N(C)C[C@@H]2Oc3ccc(NC(=O)Nc4ccccc4)cc3C(=O)N([C@H](C)CO)C[C@@H]2C)cc1
-4.9	-10.4	0.3	1.3	44.9*	0.0	COC(=O)c1ccc(C2=NOC(C)(c3sc(-c4ccccc4)nc3C)C2)cc1 (configuration not stated)

# (list continues)
Dyrk1A ADPGlo	Yeast UUG start	CAL PDZ FP-1	dFosB activator	CAL PDZ FP-2	CDK5 p35 inh	SMILES
4.0	-2.7	-3.8	43.9*	58.5*	0.5	COC(=O)c1ccc(C(=O)Nc2ccc3nc(-c4ccncc4)[nH]c3c2)cc1
nt	-1.1	0.9	5.8	35.5*	-1.1	O=C(OCC(=O)N1CCN(C(=O)c2ccco2)CC1)c1cncc(Br)c1
nt	nt	-2.4	1.2	53.3*	-0.1	O=C(OCC(=O)N1CCN(C(=O)c2ccco2)CC1)c1cc(S(=O)(=O)Nc2ccc(Cl)cc2)ccc1O
-2.8	nt	-1.2	4.5	-4.1	0.8	O=C(CCNS(=O)(=O)c1ccc(Cl)cc1)OCC(=O)N1CCN(C(=O)c2ccco2)CC1
nt	15.4	nt	nt	nt	nt	COc1ccc(NC(=O)N(C)C[C@H]2Oc3ccc(NS(=O)(=O)c4c(C)noc4C)cc3CC(=O)N([C@H](C)CO)C[C@H]2C)cc1
4.2	-27.1	14.1	2.8	75.5*	1.2	COc1cc(/C=N/Nc2nc(C)cc(C)n2)cc(OC)c1OC
nt	-29.1	nt	nt	nt	nt	COc1cc(/C=N/Nc2nc(C)cc(C)n2)ccc1O
nt	-17.4	0.2	-5.2	86.0*	-0.2	Cc1ccccc1C(=O)c1ccccc1C(=O)c1ccccc1
-4.2	-27.3	0.7	2.2	33.4*	0.9	CC1CCC2(CC1)NC(=O)N(CC(=O)NC1CCCCC1C)C2=O (configuration not stated)
nt	15.0	nt	nt	nt	nt	C/C=C/c1ccc2c(c1)O[C@@H](CN(C)Cc1cncnc1)[C@H](C)CN([C@@H](C)CO)S2(=O)=O
8.6	1.8	nt	151.3*	-6.9	1.1	CCN(CC)CCNc1nc2cc(OC)c(OC)cc2c2nc(-c3ccccc3)nn12
2.3	nt	-5.1	-32.8	-2.3	-2.1	COc1cc2[nH]c(=O)n3nc(-c4ccccc4)nc3c2cc1OC
-4.9	-1.6	0.3	5.0	38.0*	-0.7	CCc1noc(C)c1C(=O)N(CCOC)c1c(N)n(CC(C)C)c(=O)[nH]c1=O
nt	23.7	nt	nt	nt	nt	Cc1ccc(S(=O)(=O)Nc2ccc3c(c2)C(=O)N([C@H](C)CO)C[C@H](C)[C@H](CN(C)CC2CCCCC2)OCCCC[C@H](C)O3)cc1
nt	-13.1	nt	nt	nt	nt	O=C(Nc1ccccc1)Nc1ccc2c(c1)[C@H]1C[C@@H](CC(=O)N3CCOCC3)O[C@@H](CO)[C@H]1O2
-3.0	-6.2	5.5	74.6*	0.5	-1.1	CCc1ccc(Nc2n[n+](-c3ccccc3)c(-c3ccc(N(CC)CC)cc3)s2)cc1
-3.1	-21.8	0.1	1.6	-1.7	-1.1	CCc1ccc(Nc2n[n+](-c3ccccc3)c(-c3ccc(OCc4ccccc4)cc3)s2)cc1
-3.9	-24.5	4.0	27.6*	-2.7	0.5	CCN(CC)c1ccc(-c2sc(Nc3ccccc3)n[n+]2-c2ccc(F)cc2)cc1
nt	10.6	nt	nt	nt	nt	C[C@H]1CN([C@@H](C)CO)S(=O)(=O)c2ccc(-c3cccc(F)c3)cc2O[C@@H]1CN(C)C(=O)C1CC1

# From PubChem
